## Curated experimental data: properties

Source: data files of OPERA 2.9 (Mansouri et al.), github.com/kmansouri/OPERA.

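The numbers are reported measurements, compiled and curated for the OPERA QSAR suite. The files give a single number for a compound and property, which may rest on several reports. How each value was measured is not recorded, so precision varies. The measured form (salt, isomer or mixture) is not always the one drawn. Unmarked limits or estimates from the upstream databases cannot be ruled out.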

Melting points are in °C. Boiling points are in °C, nominally at 760 mmHg. The octanol-water partition coefficient is given as log10; larger values mean a more lipophilic compound. Solubility in water is on a log10 molar scale (set defined at 25 °C). Vapor pressures (log10 mmHg) refer to near room temperature, 15 to 30 °C; higher is more volatile. Henry's law constant (air-water partitioning) is log10 of atm·m3/mol, nominally at 25 °C. fu is the fraction unbound in human plasma, from 0 to 1. Intrinsic clearance (human, µL/min per 10^6 hepatocytes): higher is faster turnover, and 0 stands for none detected. "n/a" marks a cell with nothing listed here.

* CC(=O)OC1CCC2C3CCc4cc(O)ccc4C3CCC12C (stereo not drawn): mp 218 °C; logP (octanol/water) 4; log S -6.321 (log10 mol/L)
* CCCNC(=O)C(C)(C)CO: boiling point 280.5 °C; vapor pressure -2.754 (log10 mmHg)
* CN(C)CCOCCN(C)CCO: mp -53 °C; logP (octanol/water) -0.515; vapor pressure -1.046 (log10 mmHg)
* CCCCN(C)C(=O)Nc1ccc(Cl)c(Cl)c1: vapor pressure -6 (log10 mmHg); Henry's law constant -8.902 (log10 atm·m3/mol)
* Cc1ccccc1NC(=N)NC(=N)N: logP (octanol/water) 0.71; log S -1.842 (log10 mol/L)
* CCOc1ccccc1NC(=O)C(=O)Nc1ccccc1CC: logP (octanol/water) 4.75; log S -6.018 (log10 mol/L); vapor pressure -8.381 (log10 mmHg)
* CCCCCCCC(O)=NCCCC[C@H](N)C(=O)O: log S 0.058 (log10 mol/L); vapor pressure -5.361 (log10 mmHg)
* CCc1nccnc1C: mp -33.1 °C; vapor pressure 0.185 (log10 mmHg)
* Nc1ccc(S(=O)(=O)Nc2nccs2)cc1: plasma fu 0.33; hepatic Clint 0 µL/min/10^6 cells
* O=C(Nc1ccc(Cc2ccc(NC(=O)NC3CCCCC3)cc2)cc1)NC1CCCCC1: logP (octanol/water) 3.5; log S -7.904 (log10 mol/L)
* CCO/C=C1\N=C(c2ccccc2)OC1=O: log S -2.072 (log10 mol/L); vapor pressure -5.194 (log10 mmHg)
* CC(CCO)CC1=CCCCC1 (stereo not drawn): mp -24 °C; boiling point 249 °C; logP (octanol/water) 2.65; log S -2.755 (log10 mol/L); vapor pressure -2.77 (log10 mmHg)
* O=C1c2ccccc2C(c2ccc(O)cc2)(c2ccc(O)cc2)N1c1ccccc1: mp 294.5 °C; log S -6.252 (log10 mol/L)
* CCCCC(CC)COC(=O)CC(O)C(=O)OCC(CC)CCCC (stereo not drawn): mp -80.15 °C; log S -6.212 (log10 mol/L); vapor pressure -6.124 (log10 mmHg)
* Clc1cc(Cl)c(Cl)nc1Cl: log S -3.982 (log10 mol/L); vapor pressure -1.648 (log10 mmHg)
* CCCc1ccc(-c2ccc(-c3ccc(CC)cc3)c(F)c2F)cc1: mp 71.4 °C; boiling point 431 °C; log S -7.129 (log10 mol/L); vapor pressure -8.519 (log10 mmHg)
* COC(=O)c1ccccc1N=NC(C)Cc1ccc(C(C)(C)C)cc1 (stereo not drawn): mp 41.47 °C; logP (octanol/water) 4.4; log S -5.547 (log10 mol/L); vapor pressure -5.046 (log10 mmHg)
* O=C(Nc1ccc(F)cc1)c1cccc(Oc2cccc(C(F)(F)F)c2)n1: mp 107 °C; log S -6.9 (log10 mol/L); vapor pressure -8.893 (log10 mmHg); Henry's law constant -7.802 (log10 atm·m3/mol)
* C=C(C)C(=O)OCCCOc1ccc(C(C)(C)c2ccc(OCCCOC(=O)C(=C)C)cc2)cc1: mp -41 °C; log S -7.456 (log10 mol/L); vapor pressure -8.106 (log10 mmHg)
* CC1CNC(=O)O1 (stereo not drawn): boiling point 305 °C; vapor pressure -1.738 (log10 mmHg)
* CCCCC(=O)OCC(=O)[C@H]1[C@H](C)C[C@H]2[C@@H]3C[C@H](F)C4=CC(=O)C=C[C@]4(C)C3=CC[C@@]21C: mp 125.7 °C; log S -6.044 (log10 mol/L)
* CC(C)(C)c1cc(CCC(=O)OCCNC(=O)C(=O)NCCOC(=O)CCc2cc(C(C)(C)C)c(O)c(C(C)(C)C)c2)cc(C(C)(C)C)c1O: mp 178 °C; log S -8.667 (log10 mol/L); vapor pressure -9.837 (log10 mmHg)
* CCCCOCCOS(=O)(=O)[O-].[Na+]: mp 126.4 °C; logP (octanol/water) -2.7

4 of these entries, quoted again:

compound	mp (°C)	boiling point (°C)	logP (octanol/water)	log S (log10 mol/L)	vapor pressure (log10 mmHg)	Henry's law constant (log10 atm·m3/mol)	plasma fu	hepatic Clint (µL/min/10^6 cells)
CC(C)(C)c1cc(CCC(=O)OCCNC(=O)C(=O)NCCOC(=O)CCc2cc(C(C)(C)C)c(O)c(C(C)(C)C)c2)cc(C(C)(C)C)c1O	178	n/a	n/a	-8.667	-9.837	n/a	n/a	n/a
CCO/C=C1\N=C(c2ccccc2)OC1=O	n/a	n/a	n/a	-2.072	-5.194	n/a	n/a	n/a
CC(=O)OC1CCC2C3CCc4cc(O)ccc4C3CCC12C (stereo not drawn)	218	n/a	4	-6.321	n/a	n/a	n/a	n/a
CCCCOCCOS(=O)(=O)[O-].[Na+]	126.4	n/a	-2.7	n/a	n/a	n/a	n/a	n/a